Reference: US9593305B2, “Differentiation of pluripotent stem cells” (Janssen Biotech, Inc., priority 2008, dated 2017)

Key:
[1] = test system: H1 human embryonic stem cells; test: Definitive endoderm formation with TGF superfamily members, SOX17 and cell number (Example 14); format: cell-based; settings: dose titration with Wnt3a, Compound 34, or both
Method: Stock cultures of human embryonic stem cells (H1 human embryonic stem cell line) were maintained in an undifferentiated, pluripotent state on reduced growth factor MATRIGEL™-(BD Biosciences; Cat #356231)-coated dishes in MEF conditioned medium with passage on average every four days. Passage was performed by exposing cell cultures to a solution of 1 mg/ml dispase (Invitrogen; Cat #17105-041) for 5 to 7 minutes at 37° C. followed by rinsing the monolayer with MEF conditioned culture medium and gentle scraping to recover cell clusters. Clusters were centrifuged at low speed to collect a cell pellet and remove residual dispase. Cell clusters were split at a 1:3 or 1:4 ratio for routine maintenance culture or a 1:1 ratio for immediate assay. All human embryonic stem cell lines were maintained at passage numbers less than 50 and routinely evaluated for normal karyotype and absence of mycoplasma.
Cell clusters were evenly resuspended in MEF conditioned medium supplemented with 8 ng/ml bFGF and seeded onto reduced growth factor MATRIGEL™-coated 96-well Packard VIEWPLATES (PerkinElmer; Cat #6005182) in volumes of 0.1 ml/well. Daily feeding was conducted by aspirating spent culture medium from each well and replacing with an equal volume of fresh medium. Plates were maintained at 37° C., 5% CO2 throughout assay. […]

[2] = test system: H1 human embryonic stem cells; test: Secondary assay: compound combined with individual growth factors or small molecules, no activin A (Example 5, Table 4); format: cell-based; settings: agent combined with 2.5 μM compound and Wnt3a
Method: Clusters of H1 human embryonic stem cells were grown on reduced growth factor […]™ (Invitrogen; Cat #356231)-coated tissue culture plastic. Cells were passaged using collagenase (Invitrogen; Cat #Cat #17104-019) treatment and gentle scraping, washed to remove residual enzyme, and plated with even dispersal at a ratio of 1:1 (surface area) on reduced growth factor […]™-coated 96-well black plates (Packard ViewPlates; PerkinElmer; Cat #6005182) using volumes of 100 μl/well. Cells were allowed to attach as clusters and then recover log phase growth over a 1 to 3 day period, feeding daily with MEF conditioned medium supplemented with 8 ng/ml bFGF (R&D Systems; Cat #233-FB). Plates were maintained at 37° C., 5% CO2 in a humidified box throughout the duration of assay.
Other agents tested were purchased as follows: BMP-7 (Sigma; Cat #B1434), LY294002 (Cayman; Cat 70920), PD98059, U0126, U0124 (EMD Biosciences; Cat #453710), muscimol (Tocris; Cat #0289), biuculline (Tocris; Cat #0130), sodium butyrate (Sigma; Cat #B5887). All growth factors were solubilized in PBS with 0.1% BSA (Sigma; Cat #A7888) and stored frozen at −80° C. Small molecules were solubilized in 100% DMSO (Sigma; Cat #D2650) and stored frozen at −80° C. The compounds were available as 5 mM stocks in 96-well plate format, solubilized in 100% DMSO and stored at −80° C. […]

B1: BMP-2: member of the BMP family, R&D Systems (protein, UniProt P12643 283-396, looked up)
Bone morphogenetic protein 2: QAKHKQRKRLKSSCKRHPLYVDFSDVGWNDWIVAPPGYHAFYCHGECPFPLADHLNSTNHAIVQTLVNSVNSKIPKACCVPTELSAISMLYLDENEKVVLKNYQDMVVEGCGCR
cell numbers at the conclusion of assay [1]: significant effect on cell numbers | induction of SOX17 expression compared to the Wnt3a treatment alone [1]: weak or negligible | effect on SOX17 expression [2]: inhibited or had negligible effects on SOX17 expression
